Data from patent publication US9505794B2, “Ruthenium (II) complexes, preparation and uses thereof” (priority 2014, dated 2016).

Assay: Partition coefficient (log P), shake-flask method, n-octanol/water
Details: values of text and unnumbered table
Description: Partition coefficients (log P) for these three complexes were evaluated by shake-flask method and these were correlated to the lipophilicity of respective complexes.
n-Octanol saturated water and water saturated octanol was obtained using Millipore water stirred with n-octanol for 24 h before the two layers were separated by centrifugation (3000 rpm, 5 min). The chloride salts of complex 1 and 2 were dissolved in n-octanol saturated water giving concentrations ranging from 0.5 to 3.0 mmol. This was then mixed with water saturated n-octanol in the ratio of 1:1 (v/v). Resulting solvent mixtures were vertexed for 30 min at room temperature, and then were subjected to centrifugation (3000 rpm, 5 min) to get two distinct separate layers. Samples from each layer were obtained using a fine-gauge needle and the absorbance of respective complex in each phase determined using UV-Vis spectroscopy.

{bis-(2,2′-bpy)-(1-((4′-methyl-[2,2′-bipyridin]-4-yl)methyl)pyrimidine-2,4(1H,3H)-dione)}ruthenium(II) dichloride [Complex 2]
log P: −0.50
